The source made the active and inactive calls. The rule behind the calls is not given here.
Biological target: Orexin/Hypocretin receptor type 1 (Homo sapiens, UniProt O43613)
Test: Displacement of [3H]-[…] from human orexin 1 receptor expressed in CHO cells incubated for 2 hrs by whole cell radioligand binding assay
Type: cell-based

The chains behind the UniProt entries cited, without tags or fusion partners.
UniProt O43613, whole entry: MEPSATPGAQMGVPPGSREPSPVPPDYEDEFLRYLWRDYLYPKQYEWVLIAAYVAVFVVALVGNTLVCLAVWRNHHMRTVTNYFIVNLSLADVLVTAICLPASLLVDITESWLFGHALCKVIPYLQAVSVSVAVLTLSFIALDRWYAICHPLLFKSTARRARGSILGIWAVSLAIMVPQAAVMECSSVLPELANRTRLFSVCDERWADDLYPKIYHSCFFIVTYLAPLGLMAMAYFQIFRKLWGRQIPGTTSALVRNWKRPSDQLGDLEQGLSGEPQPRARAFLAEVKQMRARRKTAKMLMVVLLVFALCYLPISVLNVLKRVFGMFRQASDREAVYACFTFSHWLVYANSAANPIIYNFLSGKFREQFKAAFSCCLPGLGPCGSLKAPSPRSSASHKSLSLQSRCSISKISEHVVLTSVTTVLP

Structure (SMILES)	pKi
CN(Cc1[nH]cc[n+]1C)C(=O)CCCc1c[nH]c2ccccc12	inactive
COc1cccc(CN2CC3(CCN(Cc4nccs4)CC3)CC2=O)c1	inactive
CCC(=O)N1CCCN([C@@H](C)C(=O)Nc2ccccc2C(C)=O)CC1	inactive
Cc1ccc(C(=O)N2CCN(Cc3nnc(-c4ccco4)o3)CC2)cc1F	inactive
Cc1nc(-c2ncccn2)sc1C(=O)OCCn1c(C)nc2ccccc21	inactive
CN(Cc1[nH]cc[n+]1Cc1ccccc1)C(=O)c1cccc2cc[nH][n+]12	inactive
O=C1c2ccccc2C(=O)N1CCc1nc(-c2cnccn2)no1	inactive
O=C(Cc1ccc(Cl)cc1)N1CCC(c2noc(-c3ccccn3)n2)CC1	inactive
CN(C)S(=O)(=O)c1cccc(C(=O)N(CCc2ccccc2)c2nc3ccccc3s2)c1	inactive
